The assay concerns the target VHL (Homo sapiens (Human), UniProt P40337). The assay is described as follows: VHL fluorescence polarization (FP) competition assay. It is filed as binding.

SMILES strings stand for the structures. pIC50: −log10 of the molar value.

Consider `Cc1ncsc1-c1ccc(CNC(=O)[C@@H]2C[C@@H](O)CN2C(=O)[C@@H](NC(=O)Cc2ccccc2)C(C)(C)C)cc1` [Example 21, (2S,4R)-1-((S)-3,3-dimethyl-2-(2-phenylacetamido)butanoyl)-4-hydroxy-N-(4-(4-methylthiazol-5-yl)benzyl)pyrrolidine-2-carboxamide], for which the pIC50 (0.25% in DMSO) was 5.24, the pIC50 (1% in DMSO) is 6.41 and the pIC50 (10% in DMSO) is 5.83.

As usually defined, the pIC50 is the IC50 on a negative log10 scale, so that one unit is a factor of ten. Read a low pIC50 as a large IC50.

For the origin of these results see US10730870B2, “Compounds and methods for the enhanced degradation of targeted proteins” (Arvinas, Inc., priority 2015, dated 2020).
